pKi: −log10 of the molar value.
Tests used:
rat brain SERT = rat brain SERT (Rattus norvegicus, UniProt P31652); test: biochemical
[1] = biological target: human SERT (HEK293 membranes) (Homo sapiens, UniProt P31645); test: biochemical

Sequences of proteins named here, by UniProt entry; tags and fusion partners are left off.
UniProt P31652, whole entry: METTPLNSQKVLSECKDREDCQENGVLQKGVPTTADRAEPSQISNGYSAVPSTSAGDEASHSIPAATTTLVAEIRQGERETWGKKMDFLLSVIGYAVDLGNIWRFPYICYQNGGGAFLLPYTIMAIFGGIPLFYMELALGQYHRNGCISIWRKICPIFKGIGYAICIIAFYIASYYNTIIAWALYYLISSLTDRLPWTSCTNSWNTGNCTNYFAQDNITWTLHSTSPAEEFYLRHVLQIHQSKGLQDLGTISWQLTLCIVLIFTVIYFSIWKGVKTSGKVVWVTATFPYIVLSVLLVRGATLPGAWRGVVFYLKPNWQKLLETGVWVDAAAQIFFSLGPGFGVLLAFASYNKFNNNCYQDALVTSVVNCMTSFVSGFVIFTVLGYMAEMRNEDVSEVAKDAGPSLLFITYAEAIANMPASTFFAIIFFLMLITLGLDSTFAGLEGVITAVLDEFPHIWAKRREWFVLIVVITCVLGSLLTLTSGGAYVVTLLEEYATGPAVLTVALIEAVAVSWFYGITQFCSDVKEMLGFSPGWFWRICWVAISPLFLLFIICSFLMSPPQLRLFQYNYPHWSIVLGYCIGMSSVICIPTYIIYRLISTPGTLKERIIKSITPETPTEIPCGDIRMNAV
UniProt P31645, whole entry: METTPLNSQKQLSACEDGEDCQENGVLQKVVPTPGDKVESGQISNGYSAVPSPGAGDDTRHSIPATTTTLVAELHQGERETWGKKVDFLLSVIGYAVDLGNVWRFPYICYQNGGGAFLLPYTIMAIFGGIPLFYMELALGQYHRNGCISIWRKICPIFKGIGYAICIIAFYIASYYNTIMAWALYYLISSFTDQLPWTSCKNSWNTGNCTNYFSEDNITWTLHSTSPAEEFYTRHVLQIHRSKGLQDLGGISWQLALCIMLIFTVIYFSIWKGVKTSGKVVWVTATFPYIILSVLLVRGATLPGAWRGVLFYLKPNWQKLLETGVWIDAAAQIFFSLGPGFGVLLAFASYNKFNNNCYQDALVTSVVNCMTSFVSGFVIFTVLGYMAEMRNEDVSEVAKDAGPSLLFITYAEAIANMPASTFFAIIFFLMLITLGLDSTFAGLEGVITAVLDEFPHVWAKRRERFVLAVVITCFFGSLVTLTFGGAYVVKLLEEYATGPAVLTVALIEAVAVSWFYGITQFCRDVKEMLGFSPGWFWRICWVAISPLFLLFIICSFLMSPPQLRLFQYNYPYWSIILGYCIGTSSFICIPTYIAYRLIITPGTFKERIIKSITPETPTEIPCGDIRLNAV

CNCc1cc(C(=O)N2CCCN(C3CC3)CC2)ccc1Oc1cccnc1 [Example 4, (4-Cyclopropyl-[1,4]diazepan-1-yl)-[3-methylaminomethyl-4-(pyridin-3-yloxy)-phenyl]-methanone]
pKi (rat brain SERT): 7.66 | pKi [1]: 6.92

Reference: patent US20080045508A1, “SUBSTITUTED AMINOMETHYL BENZAMIDE COMPOUNDS” (priority 2006, published 2008)
